This assay relates to 3D human testicular organoids. Put plainly: Testosterone production (ELISA) after hCG stimulation. The class given is cell-based. Conditions: per 100,000 cells. The method, then: Organoid androgen production was measured using a testosterone high sensitivity ELISA kit (ENZO Testosterone high sensitivity 96-well enzyme immunosorbent assay kit; Enzo Life Sciences, Farmingdale, N.Y.) according to the manufacturer's instructions. The minimum detectible limit was 3.9 pg/mL A total of 20 organoids per time point were used in this assessment, wherein half were stimulated with 2 nM hCG for 3 hours. Following incubation, cell culture supernatant was collected from stimulated and nonstimulated organoids and concentrated 4× using an Eppendorf® Vacufuge®. All samples were assayed in duplicate. A standard curve was generated and used to determine testosterone concentrations. Testosterone levels were determined via optical density at 405 nm wavelength absorbance.
To test the ability of 3D human testicular organoids to produce androgens and respond to androgen stimulation in vitro, culture supernatant was measured for total testosterone (n=10) concentration per 100,000 cells before and after stimulation with 2 ng/mL hCG for 3 hours. At day 2, nonstimulated testosterone concentrations were 97.168±17.471 pg/mL, whereas after hCG stimulation, concentrations were 151.325±11.592 pg/mL (FIG. 6F).
A general note: An ELISA detects its analyte on a solid surface through an enzyme-linked reagent.

With “hCG: hormone used to stimulate organoid androgen (testosterone) production”, the “testosterone concentration after hCG stimulation” value reads like this: (day 2, 2 ng/mL hCG for 3 hours, n=10) 151.325 ± 11.592 pg/mL; (day 9, repeated hCG stimulation) 105.958 ± 2.556 pg/mL; (day 16, repeated hCG stimulation) 91.008 ± 14.764 pg/mL; (day 23, repeated hCG stimulation) 98.83 ± 3.495 pg/mL.

The values above are taken from patent US10993433B2, “Method of producing in vitro testicular constructs and uses thereof” (Wake Forest University Health Sciences, priority 2015, dated 2021).
